Laboratory results as given in patent US11059860B2, “Biocidal peptide and preparation based thereon” (“VERTA RESEARCH-PRODUCTION COMPANY” LTD, priority 2017, dated 2021).
Some compounds may have been tested in ways that are not shown here.

Columns and labels:
[1] = tested on: thymus cells; assay: Spontaneous proliferation of thymus cells (3H-thymidin capture); assay type: cell-based, murine; conditions: 72 hrs
[2] = tested on: spleen cells; assay: Spontaneous proliferation of spleen cells (3H-thymidin capture); assay type: cell-based, murine; conditions: 72 hrs
[3] = tested on: spleen cells stimulated with LPS; assay: Proliferation of spleen cells stimulated with LPS (3H-thymidin capture); assay type: cell-based, murine
[4] = tested on: RAW 264.7 macrophage line cells; assay: NO production by RAW 264.7 macrophage line cells stimulated with LPS (Greiss test); assay type: cell-based
Experimental: Upon completion of incubation, the culture medium in all wells of the plate was replaced with 0.25 ml of fresh medium. […] Polymixin B (Calbiochem) (PMB) in the same concentrations was used as the positive control of the inhibition of the LPS effect. The prepared mixture was then added at 0.25 ml increments to the wells of the culture plate at least in two parallel experiments. A mixture of LPS and the culture medium was added to the control wells. The cells were cultivated for 24 hrs. in a CO2 incubator. NO production was measured based on the total nitrite level in the culture medium in the Greiss test by using a commercial reagent (Sigma) according to the manufacturer's specifications.

HN2—(CH2)10—CO-Ile-Leu-Pro-D-Phe-Lys-D-Phe-Pro-D-Phe-D-Phe-Pro-D-Phe-Arg-Arg-NH2
spontaneous proliferation of thymus cells (captured 3H-thymidin) ([1]; peptide 0.08 μg/ml): 273 ± 75 imp/min
spontaneous proliferation of thymus cells (captured 3H-thymidin) ([1]; peptide 0.4 μg/ml): 321 ± 57 imp/min
spontaneous proliferation of thymus cells (captured 3H-thymidin) ([1]; peptide 2 μg/ml): 249 ± 50 imp/min
spontaneous proliferation of thymus cells (captured 3H-thymidin) ([1]; peptide 10 μg/ml): 211 ± 57 imp/min
spontaneous proliferation of spleen cells (captured 3H-thymidin) ([2]; peptide 0.08 μg/ml): 2439 ± 526 imp/min
spontaneous proliferation of spleen cells (captured 3H-thymidin) ([2]; peptide 0.4 μg/ml): 1791 ± 219 imp/min
spontaneous proliferation of spleen cells (captured 3H-thymidin) ([2]; peptide 2 μg/ml): 1225 ± 474 imp/min
spontaneous proliferation of spleen cells (captured 3H-thymidin) ([2]; peptide 10 μg/ml): 1174 ± 282 imp/min
effect on splenocyte proliferation stimulated with lipopolysaccharide (in words) ([3]; 0.4-2.0 μg/ml doses): inhibited the LPS effect
proliferation of spleen cells stimulated with LPS (captured 3H-thymidin) ([3]; LPS 0.02 μg/ml, peptide 0.08 μg/ml): 4827 ± 1013 imp/min
proliferation of spleen cells stimulated with LPS (captured 3H-thymidin) ([3]; LPS 0.02 μg/ml, peptide 0.4 μg/ml): 4008 ± 524 imp/min
proliferation of spleen cells stimulated with LPS (captured 3H-thymidin) ([3]; LPS 0.02 μg/ml, peptide 2 μg/ml): 3970 ± 936 imp/min
proliferation of spleen cells stimulated with LPS (captured 3H-thymidin) ([3]; LPS 0.2 μg/ml, peptide 0.08 μg/ml): 17121 ± 2647 imp/min
proliferation of spleen cells stimulated with LPS (captured 3H-thymidin) ([3]; LPS 0.2 μg/ml, peptide 0.4 μg/ml): 13289 ± 997 imp/min
proliferation of spleen cells stimulated with LPS (captured 3H-thymidin) ([3]; LPS 0.2 μg/ml, peptide 2 μg/ml): 10389 ± 613 imp/min
effect on NO production stimulated by LPS (in words) ([4]; 10-0.4 μg/ml doses): inhibited the NO production
NO production inhibition ([4]; stimulated with 0.04 ml of LPS, peptide 0.4 μg/ml): 16%
NO production inhibition ([4]; stimulated with 0.04 ml of LPS, peptide 2 μg/ml): 52%
NO production inhibition ([4]; stimulated with 0.04 ml of LPS, peptide 10 μg/ml): 94%
NO production inhibition ([4]; stimulated with 0.2 ml of LPS, peptide 0.4 μg/ml): 2%
NO production inhibition ([4]; stimulated with 0.2 ml of LPS, peptide 2 μg/ml): 23%
NO production inhibition ([4]; stimulated with 0.2 ml of LPS, peptide 10 μg/ml): 84%
